According to patent US20190038703A1, “METHODS OF TREATING ACUTE MYELOID LEUKEMIA WITH A FLT3 MUTATION” (Biokine Therapeutics Ltd., priority 2013, published 2019):

Tested on: human AML MV4-11 cells (FLT3-ITD)
Assay: Example 2 in-vitro viability and apoptosis by FACS
Assay type: cell-based
Conditions: BL-8040 20 μM, AC220 50 nM or their combination, 48 hrs

In the case of `CC(C)(C)c1cc(NC(=O)Nc2ccc(-c3cn4c(n3)sc3cc(OCCN5CCOCC5)ccc34)cc2)no1` [AC220, Quizartinib], the cell death was 60%.
